This is a sample that favours compounds with a hit; in the whole collection about 1.3% have one here.
LGR2 antag: inhibitors of bursicon-induced Drosophila LGR2 receptor cAMP signaling; 380,000 compounds, 0.35% hits; inhibition, % at 9.99 µM; HEK293 LGR2, CRE-luciferase, bursicon-stimulated, 4 h;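 active = drop in luminescence signal, shown as inhibition above about 50% in the replicate tests, limit read from the data, passing the limit was not always enough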;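 also: agonist challenge used bursicon conditioned medium at about half maximal strength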
CFTR F508del cor: CFTR F508del correction in bronchial cells; CFBE cells, YFP halide quenching; stimulated with forskolin plus potentiator P3; % fluorescence drop versus neutral controls; activity (quench increase), % at 7.58 µM; 350,000 compounds, 0.36% hits; AID 720511;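 active = mean added fluorescence quench of at least 8% versus neutral control, with both replicates also reaching 8%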;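 also: cells transiently co-express mutant CFTR-F508del with the halide-sensitive YFP; corrector assay measuring rescue of mutant channel to the surface after 24 h compound exposure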
miR-122 sensor: inhibitors of miR-122 in Huh7 cells | Huh7 miR-122 Renilla luciferase sensor, 48 h; neutral wells = 0, positive control = 100 | activation (reporter increase), % at 12.5 µM | 340,000 compounds, 0.3% hits | AID 602342;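 active = mean replicate activation score at least 90 and every replicate individually at or above 90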;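 also: higher luciferase means less miR-122 activity so hits act as miR-122 inhibitors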
PglD inh: inhibitors of Campylobacter jejuni PglD acetyltransferase. 360,000 compounds, 0.098% hits. inhibition, % at 12.5 µM. purified PglD enzyme, DTNB colorimetric CoA detection; in the data active = inhibition above about 16%, passing the limit was not always enough
Yeast UUG start: modulators of start codon recognition fidelity in yeast. S. cerevisiae UUG-firefly luciferase reporter, luminescence/redox ratio. activity score, % at 18.7 µM. 0.13% of 350,000 active. AID 602363;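 active = replicate mean at a twofold rise or more, about +100% in these data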;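 also: firefly luciferase made from a UUG start codon reports start codon fidelity; reporter light over untreated wells divided by growth signal over untreated wells; some hits fall short of that in this replicate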
EWS-Fli inh: EWS/Fli transcriptional activity inhibition | A673 NR0B1-luciferase reporter, viability-normalised | inhibition, % at 12.6 µM | 350,000 compounds, 0.67% hits;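 active = mean inhibition of at least 50% after viability correction, with every replicate also passing that limit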;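 also: firefly luciferase signal divided by Alamar Blue viability fluorescence both relative to DMSO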
DNA binding: binds DNA displacing acridine orange; 640 compounds, 2% hits; shares compounds with EWS-Fli inh; salmon sperm DNA acridine orange fluorescence polarization; AC35, µM (series often up to 68 µM), for the others: at the highest dose activity change, negative = DNA binding; AID 720586;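 active = fitted curve reaches a 35% signal fall AC35 below twice the sample's top valid tested dose, actives reach about 48 µM in these data; inactive = the rest, including activity in the rising direction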;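 also: lower polarization ratio signals compound binding to DNA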
An asterisk follows results filed as active; . = no result given; [ ] = remark or other dose.

Start of the listing, in advance (2 entries):
Second line of a record – Yeast UUG start | LGR2 antag | PglD inh | DNA binding | CFTR F508del cor | miR-122 sensor | EWS-Fli inh
> C[C@@H]1CN([C@H](C)CO)C(=O)c2cc(NC(=O)c3ccccc3)ccc2O[C@@H](C)CCCCO[C@H]1CN(C)C(=O)Nc1cccc2ccccc12
→ -5.6 | 27.5 | 0.1 | -8.4% | -2.0 | 19.1[16.7 µM] | 69.1*
> Cc1ccc(S(=O)(=O)Nc2ccc3c(c2)C(=O)N([C@@H](C)CO)C[C@H](C)[C@@H](CN(C)Cc2ccc(C(F)(F)F)cc2)OCCCC[C@@H](C)O3)cc1
→ 6.5 | 13.7 | 2.8 | 13.2% | 4.2 | -14.9[16.7 µM] | 54.7*

The whole of this part, from the start:
Second line of a record – Yeast UUG start | LGR2 antag | PglD inh | DNA binding | CFTR F508del cor | miR-122 sensor | EWS-Fli inh
> C[C@@H]1CN([C@H](C)CO)C(=O)c2cc(NC(=O)c3ccccc3)ccc2O[C@@H](C)CCCCO[C@H]1CN(C)C(=O)Nc1cccc2ccccc12
→ -5.6 | 27.5 | 0.1 | -8.4% | -2.0 | 19.1[16.7 µM] | 69.1*
> Cc1ccc(S(=O)(=O)Nc2ccc3c(c2)C(=O)N([C@@H](C)CO)C[C@H](C)[C@@H](CN(C)Cc2ccc(C(F)(F)F)cc2)OCCCC[C@@H](C)O3)cc1
→ 6.5 | 13.7 | 2.8 | 13.2% | 4.2 | -14.9[16.7 µM] | 54.7*
> C[C@H](CO)N1C[C@H](C)[C@H](CN(C)CC2CCCCC2)Oc2ccc(NC(=O)Nc3cccc4ccccc34)cc2C1=O
→ -0.2 | 5.8 | -2.0 | -8.8% | 1.9 | -8.9[16.7 µM] | 61.9*
> Cc1ccc(S(=O)(=O)Nc2ccc3c(c2)C(=O)N([C@H](C)CO)C[C@H](C)[C@@H](CN(C)Cc2ccc(C(F)(F)F)cc2)OCCCC[C@H](C)O3)cc1
→ 7.4 | 20.9 | 2.9 | -10.9% | 7.0 | -4.7[16.7 µM] | 68.9*
> CCN(CC(=O)Nc1c(F)cccc1F)C(=O)c1cccc(-n2cccc2)c1
→ -15.7 | 6.8 | 3.3 | . | -4.4 | -6.0 | -4.3
> CCCCc1c(O)cc(C)[nH]c1=O
→ 3.5 | 1.5 | -0.5 | . | -1.8 | -9.4 | -0.2
> Nc1cc(=O)[nH]c(=O)n1Cc1ccco1
→ -17.2 | . | -2.5 | . | . | 2.1 | .
> CC12CCC(C(=O)NNc3ccc([N+](=O)[O-])cc3)(CC1=O)C2(C)C (configuration not stated)
→ . | -1.2 | . | . | . | . | 4.2
> CC1(CCc2ccccc2)NC(=O)N(CC(=O)N2CC(=O)Nc3ccccc32)C1=O (configuration not stated)
→ . | 2.1 | . | -5.6% | 3.1 | -4.4 | 62.0*
> CC1(CCc2ccccc2)NC(=O)N(CC(=O)N2CCc3ccccc32)C1=O (configuration not stated)
→ -5.2 | -1.5 | -2.0 | . | -3.7 | -1.9 | 2.6
> COc1ccc(S(=O)(=O)N(C)C[C@H]2OCCCC[C@@H](C)Oc3ccc(NC(=O)NC4CCCCC4)cc3C(=O)N([C@@H](C)CO)C[C@H]2C)cc1
→ 0.2 | 8.3 | 0.1 | . | -3.0 | 0.8[16.7 µM] | 5.3
> CCCNC(=O)Nc1ccc2c(c1)OC[C@H](C)N(Cc1cccnc1)C[C@@H](C)[C@H](OC)CN(C)C2=O
→ . | -4.6 | -2.6 | . | 0.0 | . | -5.1
> COc1ccc(CCC(C)NC2CCCCCCC2)cc1 (configuration not stated)
→ 7.1 | 10.8 | -1.0 | . | 3.8 | 4.9 | 11.3
> COc1ccc(CCC(C)NCC2CCCCC2)cc1 (configuration not stated)
→ -1.9 | 9.9 | 4.8 | 1.8% | . | 9.0 | 89.9*
> Cc1cccc(NC(=O)CN2C(=O)N/C(=C/c3ccc(C)o3)C2=O)c1
→ -25.9 | 0.1 | 1.7 | . | . | -2.9 | .
> COc1ccc(/C=C2/NC(=O)N(CC(=O)Nc3cccc(C)c3)C2=O)cc1O
→ -7.7 | -14.2 | 0.1 | -6.3% | 1.0 | -3.7 | 62.3*
> Cc1c(N=Cc2cc(Br)cc(Br)c2O)cccc1C(=O)O
→ . | 5.1 | . | -6.7% | . | . | 74.3*
> CN(C)c1ccc(N=Nc2ccc(C(=O)O)cc2)cc1
→ . | -49.3 | . | -3.1% | 0.4 | . | 65.4*
> CN(C)c1ccc(C(=O)c2ccccc2)cc1
→ -17.1 | . | -0.1 | . | . | 1.7 | .
> Nc1ccc(Cn2ccc3c4c(N)nc(N)nc4ccc32)cc1
→ . | 27.3 | . | -0.7% | 3.8 | 3.4 | 69.7*
> Cc1nc2ccc(N)cc2c(=O)n1Cc1ccc(Cl)cc1
→ -7.3 | . | -6.1 | . | . | -7.7 | .
> Oc1c(C(c2ccc(Cl)cc2)N2CCCC2)cc(Cl)c2cccnc12 (configuration not stated)
→ . | 18.9 | . | -2.4% | 0.9 | . | 53.0*
> CCOc1ccc(S(=O)(=O)N2CCC(C(=O)Nc3cc(S(C)(=O)=O)ccc3Cl)CC2)cc1
→ -10.0 | . | 2.4 | . | -2.5 | -8.0 | 3.7
> O=C1Nc2ccccc2C1=Nc1ccccc1-c1ccccc1
→ . | 2.9 | . | -4.6% | 0.8 | . | 54.8*
> Cc1cc(Br)ccc1N=C1C(=O)Nc2ccccc21
→ 8.3 | 14.2 | -2.9 | -2.4% | -1.3 | -5.1 | 55.1*
> O=C1Nc2ccccc2C1=Nc1ccc(Cl)cc1
→ 20.8 | 13.1 | -8.9 | . | -1.0 | -7.5 | 37.0
> O=C1Nc2ccccc2C1=Nc1ccc(Br)cc1
→ -6.0 | -4.6 | 2.2 | -14.0% | -2.0 | -4.2 | 55.1*
> Cc1cc(C)c(N=C2C(=O)Nc3ccccc32)c(C)c1
→ -16.7 | -7.8 | -2.2 | . | -1.0 | 7.0 | 24.0
> O=C(COc1ccccc1)Nc1nnc(S(=O)(=O)Nc2ccccc2)s1
→ -4.2 | -4.4 | 8.0 | . | 5.6 | 6.0 | -2.4
> CCCCN1C(=O)C(CC(=O)NCCN2CCOCC2)CC(C(=O)N2CCOCC2)=C1C (configuration not stated)
→ . | 9.4 | . | . | -3.5 | -2.1 | 5.8
> CCOc1ccc(N=Nc2ccc(O)c3ncccc23)cc1
→ -10.1 | -0.8 | -0.5 | -8.1% | 6.6 | . | 57.8*
> O=C(Nc1ccc(Br)cc1)c1ccc(F)c(S(=O)(=O)N2CCN(c3ccccn3)CC2)c1
→ . | 8.0 | . | -6.0% | -2.4 | . | 59.2*
> CC[C@@H](C)[C@H](NS(=O)(=O)c1ccc(C)cc1)C(=O)N1CCC(C(=O)NCC(=O)O)CC1
→ 0.2 | . | -6.4 | . | . | 1.2 | .
> COCCNC(=O)CCC1CCN(Cc2cccc(-c3ccc(C)o3)c2)CC1
→ 12.9 | 2.8 | 5.7 | . | -2.3 | -0.6 | -3.9
> O=C(NC1CCCC1)C(Cc1ccccc1)n1cccc1 (configuration not stated)
→ 13.4 | 13.9 | 1.4 | . | -1.7 | . | 8.5
> COc1ccc(Cl)cc1S(=O)(=O)Nc1ccc2c(c1)n(C)c(=O)n2C
→ -15.5 | -7.8 | 0.2 | -15.6% | -1.6 | . | 54.5*
> COc1cccc(-c2cccc(-c3nc(C(=O)NCC(F)(F)F)cc4c3[C@H](CCO)N([S@@](=O)C(C)(C)C)C4)c2)c1
→ . | 6.7 | 6.4 | -8.6% | 11.0* | . | 54.0*
> COc1ccc(-c2cccc(-c3nc(C(=O)NCC(F)(F)F)cc4c3[C@H](CCO)N([S@@](=O)C(C)(C)C)C4)c2)cc1
→ . | 31.3 | 2.2 | . | 1.6 | . | 7.8
> COc1ccccc1N(/N=C1\Sc2ccccc2C1=O)C(C)=O
→ . | . | . | -11.8% | -1.9 | . | 54.4*
> C[C@@H](NC(=O)C[C@@H]1C=C[C@H](NC(=O)C2CCOCC2)[C@H](CO)O1)c1ccccc1
→ -2.1 | -12.2 | 0.3 | . | -3.0 | . | 5.1
> COc1ccc(-n2c(-c3cc(-c4ccccc4)sc3N)n[nH]c2=S)cc1
→ . | -0.5 | . | . | 3.7 | . | 7.6
> Nc1sc(-c2ccccc2)cc1-c1n[nH]c(=S)n1C1CCCCC1
→ -14.1 | . | 4.0 | -13.2% | 13.0* | 6.9 | 59.0*
> COc1ccccc1C(CCNCc1ccc(N(C)C)cc1)c1ccc(OC(C)C)cc1 (configuration not stated)
→ -0.1 | 35.6 | 2.1 | 5.3% | -1.1 | . | 60.5*

Entries of single compounds as entered above. Order of screens: Yeast UUG start | LGR2 antag | PglD inh | DNA binding | CFTR F508del cor | miR-122 sensor | EWS-Fli inh
`C[C@@H](NC(=O)C[C@@H]1C=C[C@H](NC(=O)C2CCOCC2)[C@H](CO)O1)c1ccccc1` in the list: -2.1 | -12.2 | 0.3 | . | -3.0 | . | 5.1
`COc1cccc(-c2cccc(-c3nc(C(=O)NCC(F)(F)F)cc4c3[C@H](CCO)N([S@@](=O)C(C)(C)C)C4)c2)c1` in the list: . | 6.7 | 6.4 | -8.6% | 11.0* | . | 54.0*
`COc1ccc(Cl)cc1S(=O)(=O)Nc1ccc2c(c1)n(C)c(=O)n2C` in the list: -15.5 | -7.8 | 0.2 | -15.6% | -1.6 | . | 54.5*

Screening results as filed in PubChem BioAssay.
